Assay [1] deals with human A1 adenosine receptor (Homo sapiens, UniProt P30542). The conditions noted are these: 10 μM compound; USEF; CHO-A1 membranes; 1 nM [3H]-DPCPX.
The target of the next assay is human A3 receptor (Homo sapiens, UniProt P0DMS8). The assay is described as follows: Functional cAMP assay in CHO-A3 cells. The class given is cell-based.
Assay [2] addresses human A3 adenosine receptor (Homo sapiens, UniProt P0DMS8). The conditions noted are these: read-out: Ki, A3 AR; USEF; HeLa-A3 membranes; 10 nM [3H]-NECA.

By UniProt entry, the sequences of proteins in these tests, tags left out.
UniProt P30542, whole entry: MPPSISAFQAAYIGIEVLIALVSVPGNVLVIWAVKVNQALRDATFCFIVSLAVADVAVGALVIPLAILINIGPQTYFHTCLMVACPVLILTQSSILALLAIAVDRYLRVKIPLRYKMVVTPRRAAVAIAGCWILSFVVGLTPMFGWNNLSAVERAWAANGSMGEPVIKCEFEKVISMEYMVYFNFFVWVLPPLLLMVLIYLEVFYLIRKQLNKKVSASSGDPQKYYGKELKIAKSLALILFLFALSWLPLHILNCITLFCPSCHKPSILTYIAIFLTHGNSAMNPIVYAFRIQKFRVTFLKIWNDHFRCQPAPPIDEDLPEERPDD
UniProt P0DMS8, whole entry: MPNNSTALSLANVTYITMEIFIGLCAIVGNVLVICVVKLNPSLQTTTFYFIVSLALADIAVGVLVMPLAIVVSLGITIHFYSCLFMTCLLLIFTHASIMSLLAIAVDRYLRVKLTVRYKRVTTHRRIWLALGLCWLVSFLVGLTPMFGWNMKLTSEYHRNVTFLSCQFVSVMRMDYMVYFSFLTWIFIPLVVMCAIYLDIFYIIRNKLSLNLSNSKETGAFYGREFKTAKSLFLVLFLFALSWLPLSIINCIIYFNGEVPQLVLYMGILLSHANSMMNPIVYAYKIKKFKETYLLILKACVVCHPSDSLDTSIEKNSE

Marks after values point to notes of the source that are not given here.

The EC50 is the concentration at which the effect is half-maximal. A word on the Ki: it is a measure of affinity in units of concentration, obtained from inhibition or displacement.

Regarding “N^6-[3-(1,12-dicarba-closo-dodecaboran-1-yl)propyl]-2-chloroadenosine [Compound 23]”, the “percent of inhibition, A1 AR” value in assay [1] worked out at 38 ± 2 %^a. Besides, the “KB (antagonist mode; functional character at A3)” value at human A3 receptor (inhibition of NECA (0.1 μM) effect on cAMP) is reported as “no antagonist”. In addition, the “% Emax” value at human A3 receptor (maximal agonist effect) is 104%. For the same substance, at human A3 receptor (read-out: EC50 (cAMP), agonist mode), the EC50 is 3.76 µM. For the same substance, in assay [2], the Ki is 2.2 µM.
